Measured values: PubChem BioAssay (Tox21)
Several values for one entry are separate records, joined by “and”; a condition that tells them apart may be missing. Identical values can stand only once. This is a selection; strong and weak results do not stand in their true shares. Inconclusive results are not listed. Activity calls are given as the source filed them. Calls follow the shape of the full dose curve.

Amino acid sequences for entries named in this document (tags omitted). A change or cut given only in a name is not applied to a line headed by its entry.
UniProt P11229: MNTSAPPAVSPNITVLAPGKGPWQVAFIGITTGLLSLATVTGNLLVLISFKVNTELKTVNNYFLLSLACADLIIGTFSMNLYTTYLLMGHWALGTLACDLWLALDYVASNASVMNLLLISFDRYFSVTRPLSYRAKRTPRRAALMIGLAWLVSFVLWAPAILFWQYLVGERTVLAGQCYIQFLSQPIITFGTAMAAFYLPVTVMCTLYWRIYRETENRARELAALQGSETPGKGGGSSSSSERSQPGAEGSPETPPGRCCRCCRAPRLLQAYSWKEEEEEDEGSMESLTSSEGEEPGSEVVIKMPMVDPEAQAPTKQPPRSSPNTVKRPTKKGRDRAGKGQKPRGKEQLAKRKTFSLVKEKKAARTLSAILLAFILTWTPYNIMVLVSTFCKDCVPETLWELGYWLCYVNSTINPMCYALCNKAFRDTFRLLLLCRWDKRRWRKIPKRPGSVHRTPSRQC

target: Muscarinic acetylcholine receptor M1 (Homo sapiens) (UniProt P11229); experiment: Cholinergic receptor muscarinic 1 (CHRM1) small molecule antagonists, cell-based qHTS assay (AID 1963588); conditions: CHRM1-CHO antagonist mode, calcium flux fluorescence; at 12.6 µM (top of the series); also: nearly all actives have a fitted effect of over 40% in size
From the text: National Center for Advancing Translational Sciences [NCATS]
Division of Preclinical Innovation [DPI]
U.S. Environmental Protection Agency [EPA]
National Institutes of Environmental Health Sciences [NIEHS]
National Toxicology Program [NTP]
U.S. Food and Drug Administration [FDA]
The CHRM1 is a muscarinic receptor. This receptor plays a crucial role in learning and memory processes and has long been identified as a promising therapeutic target for the improvement of cognitive decline in Alzheimer's disease (AD). The CHRM1-CHO cell line stably expressing human muscarinic acetylcholine receptor M1 (CHRM1) can be used for screening agonists and antagonists of interactions between CHRM1 and its ligands. The CHRM1-CHO Calcium Flux Assay is a homogeneous fluorescence-based assay for detecting the intracellular calcium level using FDSS kinetic plate reader system.
Tox21 Assay Protocol Summary:
CHRM1-CHO cells were dispensed at 1000 cells/3uL/well in 1536-well black-clear bottom plates using a Multidrop Dispenser. After the assay plates were incubated at a 37 C/5% CO2 incubator for 18 h, 3 uL of Dye Loading Buffer was transferred to the assay plate by a Flying Reagent Dispenser. The assay plates were incubated at 37 C for 1h. For antagonist mode, 23 nL of compounds dissolved in DMSO, positive controls or DMSO only was transferred to the assay plate by a pin tool. After 5 min incubation at room temperature, 1.5 uL of acetylcholine at 50nM was added to each well. The fluorescence intensity in the plates was measured using FDSS 7000EX kinetic plate reader for 3 min at 1 sec intervals. Each test compound was measured at 15 concentrations in three independent runs.
% is scaled to controls: 0 for no effect and ±100 for the full control effect.

SMILES | activity, negative = inhibition
CCC(C)(OOC(C)(C)C)OOC(C)(C)C | inactive: 13.8%

same assay, conditions: CHRM1-CHO antagonist mode, calcium flux fluorescence; at 28.3 µM (top of the series)

SMILES | activity, negative = inhibition
C[C@H]1C(=O)O[C@@H]2CCN3CC=C(COC(=O)[C@](C)(O)[C@]1(C)O)[C@H]23 | inactive: 51.5%
NC(=O)Nc1ccc([As](=O)(O)O)cc1 | inactive: -13.7%
CN(C(=O)Cc1ccc(Cl)c(Cl)c1)[C@H]1CC[C@@]2(CCCO2)C[C@@H]1N1CCCC1 | inactive: -9.6%
CCN(CC)CCOC(=O)C(O)(c1ccccc1)c1ccccc1 | inactive: -32%
CN(C(=O)Cc1ccccc1)[C@H]1CC[C@@]2(CCCO2)C[C@@H]1N1CCCC1 | inactive: -20.6%

same assay, conditions: CHRM1-CHO antagonist mode, calcium flux fluorescence; at 61.5 µM (top of the series)

SMILES | activity, negative = inhibition
N#CSc1ccc([N+](=O)[O-])cc1[N+](=O)[O-] | inactive: -2.41%
O=[p+]1oc2ccccc2c2ccccc21 (stereo not drawn) | inactive: 7.43%
C[C@H]1C(=O)O[C@@H]2CCN3CC=C(COC(=O)[C@](C)(O)[C@]1(C)O)[C@H]23 | inactive: -14.2% and inactive: -14.9%
O=P(Cl)(Oc1ccccc1)Oc1ccccc1 | inactive: 8.31%
O=[N+]([O-])c1ccc(S(=O)(=O)O)c([N+](=O)[O-])c1 | inactive: 7.86%
ClP(Cl)c1ccccc1 | inactive: -2.98%
CCCCO[P+](=O)OCCCC | inactive: 33.4% and inactive: 2.68%
NC(=O)Nc1ccc([As](=O)(O)O)cc1 | inactive: 1.47%
O=P(Cl)(Cl)c1ccccc1 | inactive: 1.17%
Cc1cc([N+](=O)[O-])c(O)c([N+](=O)[O-])c1 | inactive: 13.6%
Cc1cc([N+](=O)[O-])cc([N+](=O)[O-])c1O | inactive: -7.09% and inactive: 20.2%
CCOP(=S)(CC)Sc1ccccc1 (stereo not drawn) | inactive: -6.36%
CN(N=O)C(=N)N[N+](=O)[O-] | inactive: -16.8%
O=[N+]([O-])c1ccc([N+](=O)[O-])cc1 | inactive: 19.1%
CC(C)OP(=S)(OC(C)C)SCCNS(=O)(=O)c1ccccc1 | inactive: 3.82%
CC(C)CCCCCCCOP(OCCCCCCCC(C)C)Oc1ccccc1 | inactive: 22.4%
O=C(Cl)OCCOC(=O)Cl | inactive: -10.7%
O=[As]c1ccccc1 (stereo not drawn) | inactive: 11.7%
CN(C(=O)Cc1cccc2occc12)[C@H]1CC[C@@]2(CCCO2)C[C@@H]1N1CCCC1 | inactive: -2.88%
CCCCC(CC)CO[P+](=O)OCC(CC)CCCC (stereo not drawn) | inactive: 12.4%
CCNC(C)Cc1ccc2c(c1)OCO2 (stereo not drawn) | inactive: -16.1%
O=C(Cl)Oc1ccccc1 | inactive: 0.973%
CCOC(=O)Cl | inactive: 0.158%
O=[P+](Oc1ccccc1)Oc1ccccc1 | inactive: -4.44%
CCCCOP(OCCCC)OCCCC | inactive: 1.02%
COC(=O)Cl | inactive: 2.56%
CCCCCCCCCCCCCC[P+](CCCCCC)(CCCCCC)CCCCCC | inactive: 11.6%
